In patent US6593340B1, “Pharmaceutical compositions containing N-propargylphentermine and related analogs to treat neurodegeneration and/or depression” (CV Technologies, Inc., priority 2000, dated 2003):

Test system: rat brain and liver monoamine oxidase-A
Experiment: Monoamine oxidase-A-inhibiting activity ex vivo
Assay type: in vivo
Conditions: 7 days following injection, i.p., 10 mg/kg combined with DSP4 50 mg/kg

In the case of (−)-deprenyl [reference compound], the “% Inhibition Monoamine Oxidase-A” value (brain) is reported as −14.2 ± 9.3% and the “% Inhibition Monoamine Oxidase-A” value (liver) is reported as 9.1 ± 6.0%.
